Measurements: article PMC8584931 (International Journal of Molecular Sciences, 2021)

Test system: HT-29 cells
Assay: Combination cytotoxicity, MTT and SRB assays
Details: 48 h, 0.25, 0.5, 1, 2 and 4 times IV

O=c1[nH]cc(F)c(=O)[nH]1 [5-FU, 5-fluorouracil]
Cell viability and protein content of HT-29 cells, alone and combined with 5-FU (in words): did not show significant modulation of the viability
